In assay [1] the target is T1, dopamine D2 receptor (Rat Striatal Membranes) (Rattus norvegicus, UniProt P61169).
T1 construct: Rat tissue homogenates were prepared as described previously; from tissue; host or cells: rat striatal membranes (tissue homogenate)
Description: Competition for ^125 I-FIDA-1 binding to rat striatal membranes. As for the experimental part: (§1) Rat tissue homogenates were prepared as described previously. Murphy, R. A., et al., J. Med. Chem. 33, 171-178 (1990). The binding assays were performed by incubating 50 μL of tissue preparations containing 40-60 μg of protein with appropriate amounts of ^125 I-labeled ligand and competitors in a total volume of 0.2 mL of the assay buffer. After an incubation period of 15 min at 37° C. (with stirring), the samples were rapidly filtered in a cell harvester (Brandel M-24R) under vacuum through Whatman GF/B glass-fiber filters pretreated with […] protamine base and washed with 3×5 mL of cold (4° C.) 50 mM Tris-HCI buffer, pH 7.4. The nonspecific binding was obtained in the presence of 10 μM (+)butaclamol. The filters were counted in a γ counter (Beckman 5500) at an efficiency of 70%. Both Scatchard and competition experiments were analyzed with the iterative nonlinear least squares curve-fitting program LIGAND.

Chains of the proteins cited; added tags and fusions are not shown.
UniProt P61169, whole entry: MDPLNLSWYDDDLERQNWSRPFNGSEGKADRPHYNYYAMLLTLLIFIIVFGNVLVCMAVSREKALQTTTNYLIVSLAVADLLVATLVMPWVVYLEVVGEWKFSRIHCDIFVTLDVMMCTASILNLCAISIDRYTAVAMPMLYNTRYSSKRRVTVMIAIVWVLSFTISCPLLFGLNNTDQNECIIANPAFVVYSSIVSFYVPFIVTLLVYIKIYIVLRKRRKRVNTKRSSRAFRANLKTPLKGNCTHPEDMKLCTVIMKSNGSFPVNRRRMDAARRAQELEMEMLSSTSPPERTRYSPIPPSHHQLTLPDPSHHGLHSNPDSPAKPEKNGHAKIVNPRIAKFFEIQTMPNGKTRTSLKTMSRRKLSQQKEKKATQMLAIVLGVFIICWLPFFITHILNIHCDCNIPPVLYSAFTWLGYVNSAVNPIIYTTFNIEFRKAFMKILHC

The target of assay [2] is T1, dopamine D2 receptor (Rat Striatal Membranes). Description: Competition for ^125 I-FIDA-2 binding to rat striatal membranes. As for the experimental part: as §1

Here are results for one compound from patent publication US5446147A (Trustees of the University of Pennsylvania, priority 1992, dated 1995).

Each structure is given as a SMILES string.

As usually defined, the Ki is the equilibrium dissociation constant of an inhibitor or competing ligand from its target. Read a high Ki as weaker binding. For `NCCc1c[nH]c2ccc(O)cc12` [Compound 5-HT], the Ki in assay [1] was over 5 µM; in assay [2] it was over 3 µM.
